The data set in a line: Absorbance spectrum of light absorbing agents. Format: physicochemical. To be noted: light absorbing agent at 1%. From the text:
Table 1 summarizes the properties of different light absorbing agents tested according to the invention. The Table presents the absorbance peak and the estimated width of the absorbance band, based on the experimental spectra covering around 90% of the dye absorbance. The intrinsic fluorescence of the agents at the emission wavelength of 570 nm (green channel) or at the emission of 666 nm (red channel) is indicated. Intrinsic fluorescence is expressed as the percentage of the fluorescence compared to cy3 fluorescence if present at 1 μM for green channel (=100%) or Oyster645 fluorescence if present at 1 μM for red channel (=100%). Experimental details are given in example 4.

Blue Dextran [(B) Blue Dextran] displayed an Absorbance spectrum peak of 619 nm. The “Absorbance spectrum (estimated min-max)” value (estimated width of band covering around 90% of the dye absorbance) is 475-750.

The values above are taken from patent publication US20110237455A1, “ARRAY ANALYSIS FOR ONLINE DETECTION” (EPPENDORF AG, priority 2010, published 2011).
